Test results: patent US8278338B2 (priority 2004, dated 2012)
pKi: −log10 of the molar value.

Chains of the proteins cited; added tags and fusions are not shown. Residues count along the entry.
UniProt Q63380, 1-617: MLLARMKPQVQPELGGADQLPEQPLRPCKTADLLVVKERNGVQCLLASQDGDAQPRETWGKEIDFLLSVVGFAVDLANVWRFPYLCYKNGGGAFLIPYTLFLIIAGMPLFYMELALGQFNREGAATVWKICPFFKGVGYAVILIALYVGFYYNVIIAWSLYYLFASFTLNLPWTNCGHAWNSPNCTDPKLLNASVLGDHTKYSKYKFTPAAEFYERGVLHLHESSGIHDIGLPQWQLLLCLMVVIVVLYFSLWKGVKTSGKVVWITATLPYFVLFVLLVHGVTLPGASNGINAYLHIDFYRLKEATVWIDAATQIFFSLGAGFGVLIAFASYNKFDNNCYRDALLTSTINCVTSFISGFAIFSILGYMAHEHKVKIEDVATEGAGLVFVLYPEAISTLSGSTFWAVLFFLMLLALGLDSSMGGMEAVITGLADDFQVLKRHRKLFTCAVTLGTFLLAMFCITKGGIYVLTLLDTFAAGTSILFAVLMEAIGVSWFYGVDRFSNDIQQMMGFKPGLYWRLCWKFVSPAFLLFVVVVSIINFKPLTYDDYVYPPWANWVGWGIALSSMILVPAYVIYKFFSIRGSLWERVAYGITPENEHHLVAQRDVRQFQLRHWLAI

Target: T1, NA reuptake (Rattus norvegicus, UniProt Q63380)
T1 construct: isolated from the hypothalamus of male rat brains; from tissue; host or cells: rat brain synaptosomes (P2 fraction), hypothalamus of male rats
Assay: Inhibition of NA reuptake in rat brain synaptosomes (hypothalamus, P2 fraction)
Assay type: biochemical
Conditions: Cheng-Prusoff
Experimental: In order to be able to carry out these in vitro studies, synaptosomes were freshly isolated from areas of rat brain. A so-called “P2” fraction was used in each case, which was prepared exactly according to the procedure of Gray, E. G. and Whittaker, V. P. (1962, J. Anat. […], 79-88). For NA reuptake, these vesicular particles were isolated from the hypothalamus of male rat brains, and for 5HT reuptake, they were isolated from the medulla+pons region.
IC50 values were obtained thereby which can be converted into inhibitor constants (Ki) according to the “Cheng-Prusoff equation” (Cheng, Y. C. and Prusoff, W. H., 1973, Biochem. Pharmacol. 22, 3099-3108). The IC50 values were obtained with the aid of the “Figure P” computer program (Version 6.0, Biosoft, Cambridge, England). Km values were calculated according to Lineweaver, H. and Burk, D. (1934, J. Am. Chem. Soc. 56, 658-666). The “Ligand” computer program (Version 4, Biosoft, England) was used to show KD values.

**Q.** COc1ccc(C(CN(C)C)C2(O)CCCCC2)cc1 (stereo not shown) [Venlafaxin, venlafaxin, reference compound] was tested. Which pKi did it give?
**A.** 6.35
